Reference: patent US20250255976A1, “CATIONIC BIOMATERIALS AMELIORATE OBESITY-ASSOCIATED CHRONIC INFLAMMATION AND FOCAL ADIPOSITY” (THE TRUSTEES OF COLUMBIA UNIVERSITY IN THE CITY OF NEW YORK, priority 2022, published 2025)
“Also recorded” adds a separate entry of the source.

How the values were obtained:
[1] = tested on: 3T3-L1 adipocytes; experiment: Gene expression in 3T3-L1 adipocytes on Day 6 of differentiation; format: cell-based; settings: HSA 100 μg/mL, PBS vehicle control
Method: Stable TLR3-, 4-, 8-, and 9-overexpressing HEK-Blue and TLR3 knockout (KO) HEK-Dual Null cells (Invivogen) were propagated in high-glucose Dulbecco's modified Eagle's medium (DMEM) with 10% (v/v) fetal bovine serum (FBS, Corning) and maintained in growth medium supplemented with selective antibiotics following the manufacturer's instructions. RAW264.7 cells (ATCC) were cultured in high-glucose DMEM with 10% (v/v) FBS and then were subcultured by detachment with a cell scraper. C3H10T1/2 cells (ATCC) were cultured in high-glucose DMEM with 10% (v/v) FBS and 1× penicillin/streptomycin (Thermo Fisher). 3T3-L1 cells (ATCC) were cultivated in high-glucose DMEM with 10% (v/v) calf serum and 1× penicillin/streptomycin to maintain the undifferentiated status. […]
Tissues or cells were lysed into TRIzol™ reagent (Thermo Fisher Scientific), followed by the addition of chloroform for phase separation, and then were purified using a Tri-Isolate RNA Pure Kit (IBI Scientific). […] A Bio-Rad CFX96 Real-Time PCR system was used to perform quantitative real-time PCR (Q-PCR) with GoTaq qPCR Master Mix (Promega). The relative gene expression was calculated by using the ΔΔCt method, and Rpl23 was used as a reference gene.

[2] = tested on: iWAT of DIO mice; experiment: Local treatment of subcutaneous inguinal fat (iWAT) of DIO mice; format: in vivo, male C57BL/6 mice; settings: HSA alone, weekly
Method: For HSA-PG3 local treatment of subcutaneous fat, 26-week-old male mice were treated with HSA-PG3 or HSA once weekly by subcutaneous injection into the inguinal fat while on HFD feeding. For each injection, 50 g of HSA-PG3 (10:1 ratio) or 500 g HSA (equivalent to 50 g of HSA-PG3) was diluted in 300 μL of PBS solution and injected into three spots on one side of the inguinal fat. The vehicle control (PBS solution) was administered to the other side of the subcutaneous fat. Mice were sacrificed at five weeks post-injection.
Tissues or cells were lysed into TRIzol™ reagent (Thermo Fisher Scientific), followed by the addition of chloroform for phase separation, and then were purified using a Tri-Isolate RNA Pure Kit (IBI Scientific). 1 μg of RNA was used to synthesize cDNA with a High-Capacity cDNA Reverse Transcription kit from Applied Biosystems. A Bio-Rad CFX96 Real-Time PCR system was used to perform quantitative real-time PCR (Q-PCR) with GoTaq qPCR Master Mix (Promega). The relative gene expression was calculated by using the ΔΔCt method, and Rpl23 was used as a reference gene.
After dissection, tissues were immediately fixed in a 10% formalin buffered solution. Two days after fixation, tissues were embedded in paraffin, sectioned, stained with hematoxylin and eosin (H & E), and photographed under a microscope (Olympus IX71). The images were processed using ImageJ software. Frozen eWAT sections were used for the immunohistochemical staining. eWAT sections were incubated with Caveolin-1 (D46G3) (CST, #3267) at a 1:250 dilution overnight, and then anti-rabbit Alexa 488 antibody (Thermo Fisher Scientific, #A27034) was used at a 1:1000 dilution.
The data are presented as the mean±SEM. The significance between groups was evaluated using ANOVA for multiple comparisons or t-test for comparisons between two groups. A paired t-test was used to assess the significance between the subcutaneous fat on the HSA-PG3 treatment side and that on the nontreated side. The significance level was set to a p value<0.05.

Substance: human serum albumin [HSA]
- effect on adipocyte gene expression [1]: blunted effect
- iWAT depot size / mass ([2]; 500 g per injection as printed): did not reduce; also recorded: no effect
- iWAT Pparg1, Pparg2 and Fabp4 expression [2]: downregulate
- iWAT lipid synthetic genes [2]: nor repress most lipid synthetic genes
